“And” between values parts separate entries of the source, which are not always exact repeats. Equal values may be shown once. Only a part is listed here, and it is no random draw. Records with an inconclusive call do not appear. The source made the active and inactive calls. Unless noted, calls come from the whole dose curve; as a rule, active = well fitted curve in the direction sought with a large enough effect in the repeat runs; inconclusive = weak or mixed curves; inactive = no such curve, though single readings can be large; an effect the other way counts as inactive or inconclusive.
Legend:
[1] = qHTS assay for small molecule agonists of the p53 signaling pathway (AID 651631; calls by dose curve; note: nearly all actives have a fitted effect of over 15% in size); conditions: HCT-116 p53RE-bla reporter, beta-lactamase FRET ratio, 16 h
Summary of the method: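 Beta-lactamase reporter activity under p53 response elements was quantified in HCT-116 cells by FRET fluorescence, following 16 h incubation with test compounds at 37 °C and 2 h substrate development at room temperature.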

[2] = qHTS assay for small molecules that induce genotoxicity in human embryonic kidney cells expressing luciferase-tagged ATAD5 (AID 651632); conditions: HEK293T ATAD5-luciferase induction, 16 h; series mostly up to 83.3 µM; note: nearly all actives have a fitted effect of over 15% in size
Summary of the method: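 Cells were seeded at 2,000 per well, dosed with compound, and incubated 16 hr at 37C in 5% CO2. Luciferase activity was then quantified after a 30 min room-temperature incubation with Amplite.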

[3] = qHTS assay for small molecule agonists of the p53 signaling pathway - cell viability (AID 651633; calls by dose curve; note: nearly all actives have a fitted effect of over 30% in size); conditions: p53RE-bla HCT-116 viability, ATP luminescence, 16 h
Summary of the method: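 Viability counter-read: CellTiter-Glo luminescence (30 min, room temperature) in the same p53RE-bla plates. These plates had been exposed to compounds for 16 h at 37 C.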

[4] = qHTS assay for small molecules that induce genotoxicity in human embryonic kidney cells expressing luciferase-tagged ATAD5 - cell viability (AID 651634; calls by dose curve; note: nearly all actives have a fitted effect of over 25% in size); conditions: HEK293T ATAD5-luc cells viability, CellTiter-Fluor, 15.5 h
Summary of the method: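 Cells (HEK293T, luciferase-tagged ATAD5) are seeded at 2,000 per well, dosed with compound or DMSO vehicle, and incubated 15.5 hr at 37C and 5% CO2. CellTiter-Fluor is added for 30 min before fluorescence is measured.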

[5] = qHTS assay to test for compound auto fluorescence at 590 nm (red) in HepG2 cells (AID 720674); conditions: HepG2 autofluorescence, red 540/590 nm, 1 h
Summary of the method: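 1 hr compound incubation on HepG2 cells, 37 C, 5% CO2; plate read ex 540 nm / em 590 nm; intensities reported as Rose Bengal sodium equivalents.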

[6] = qHTS assay to test for compound auto fluorescence at 535 nm (green) in HepG2 cells (AID 720675); conditions: green autofluorescence 485/535 nm, 1 h
[7] = qHTS assay to test for compound auto fluorescence at 460 nm (blue) in HEK293 cells (AID 720678); conditions: blue autofluorescence 405/460 nm
Summary of the method: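 Measured: blue fluorescence (Ex 405/Em 460 nm) of compound-treated HEK293 cells, incubated overnight at 37C with 5% CO2 and scaled to triamterene equivalents.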

[8] = qHTS assay to test for compound auto fluorescence at 535 nm (green) in HEK293 cells (AID 720680); conditions: green autofluorescence 485/535 nm
[9] = qHTS assay to test for compound auto fluorescence at 460 nm (blue) in HEK293 cell free culture (AID 720681); conditions: cell-free medium, autofluorescence 405/460 nm (blue)
Summary of the method: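 Blue fluorescence (Ex 405/Em 460 nm, triamterene-equivalent) was read immediately after pin transfer of compound or DMSO into medium (DMEM, 10% FBS) without cells.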

[10] = qHTS assay for small molecule disruptors of the mitochondrial membrane potential (AID 720635); conditions: HepG2 mitochondrial membrane potential, Mito-MPS dye ratio; series mostly up to 83.2 µM
Summary of the method: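 Mitochondrial membrane potential tracked with Mito-MPS dye, red aggregates (ex 540/em 590 nm) against green monomers (ex 490/em 535 nm). Compound treatment 1 hr at 37C, dye 30 min in HepG2.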
% is set by controls: 0 for no effect and ±100 for the full control effect.

CCOP(=O)(CC)OCC
inactive: activation ([1]; at 73.3 µM (top of the series)) 2.4% | Potency [2] | activity change, negative = cytotoxicity ([3]; at 83.3 µM (top of the series)) -12.9% | activity, negative = cytotoxicity ([4]; at 83.3 µM (top of the series)) 11.9% | fluorescence, relative to Rose Bengal ([5]; at 91.3 µM (top of the series)) 0.0813% | fluorescence, % of fluorescein control ([6]; at 91.3 µM (top of the series)) 0.0455% | fluorescence, % of triamterene ([7]; at 91.3 µM (top of the series)) 0.007% | fluorescence, % of fluorescein ([8]; at 91.3 µM (top of the series)) 0.193% | fluorescence, % of fluorescent control ([9]; at 91.3 µM (top of the series)) 0.0195%

CC(C)OP(=O)(F)OC(C)C
inactive: activation ([1]; at 73.3 µM (top of the series)) 2.27% | Potency [2] | activity change, negative = cytotoxicity ([3]; at 83.3 µM (top of the series)) -7.18% | activity, negative = cytotoxicity ([4]; at 83.3 µM (top of the series)) 12.8% | fluorescence, relative to Rose Bengal ([5]; at 46 µM (top of the series)) 0.357% | fluorescence, % of fluorescein control ([6]; at 46 µM (top of the series)) 0.0316% | fluorescence, % of triamterene ([7]; at 46 µM (top of the series)) 0.0446% | fluorescence, % of fluorescein ([8]; at 46 µM (top of the series)) -0.0505% | fluorescence, % of fluorescent control ([9]; at 46 µM (top of the series)) 0.045%

CCOC(=O)Cl
inactive: Potency [10]

O=[N+]([O-])[O-].[NH4+]
inactive: Potency [2] | activity change, negative = cytotoxicity ([3]; at 83.3 µM (top of the series)) 15.3% and 14.2% and 10.5% | activity, negative = cytotoxicity ([4]; at 83.3 µM (top of the series)) 10.8% and 2.56% and -15.5% | fluorescence, relative to Rose Bengal ([5]; at 46 µM (top of the series)) -0.133% | fluorescence, relative to Rose Bengal ([5]; at 91.3 µM (top of the series)) 0.0467% and 0.24% | fluorescence, % of fluorescein control ([6]; at 46 µM (top of the series)) -0.0034% | fluorescence, % of fluorescein control ([6]; at 91.3 µM (top of the series)) 0.0096% and 0.0147% | fluorescence, % of triamterene ([7]; at 46 µM (top of the series)) 0.0346% | fluorescence, % of triamterene ([7]; at 91.3 µM (top of the series)) 0.0711% and 0.054% | fluorescence, % of fluorescein ([8]; at 46 µM (top of the series)) 0.0191% | fluorescence, % of fluorescein ([8]; at 91.3 µM (top of the series)) 0.0159% and -0.0068% | fluorescence, % of fluorescent control ([9]; at 46 µM (top of the series)) 0.0501% | fluorescence, % of fluorescent control ([9]; at 91.3 µM (top of the series)) 0.0658% and 0.14%

CC(C)N(CCCl)C(C)C
inactive: activation ([1]; at 73.3 µM (top of the series)) -2.06% | Potency [2] | activity change, negative = cytotoxicity ([3]; at 83.3 µM (top of the series)) 20% | activity, negative = cytotoxicity ([4]; at 83.3 µM (top of the series)) -9.47% | Potency [10] | fluorescence, relative to Rose Bengal ([5]; at 46 µM (top of the series)) 0.001% | fluorescence, % of fluorescein control ([6]; at 46 µM (top of the series)) -0.0233% | fluorescence, % of triamterene ([7]; at 46 µM (top of the series)) -0.0079% | fluorescence, % of fluorescein ([8]; at 46 µM (top of the series)) 0.0036% | fluorescence, % of fluorescent control ([9]; at 46 µM (top of the series)) 0.0931%

N=C(N)N[N+](=O)[O-]
inactive: activation ([1]; at 95.1 µM (top of the series)) 1.98% | Potency [2] | activity change, negative = cytotoxicity ([3]; at 95.3 µM (top of the series)) 15.3% | activity, negative = cytotoxicity ([4]; at 95.3 µM (top of the series)) 9.91% | fluorescence, relative to Rose Bengal ([5]; at 95.7 µM (top of the series)) 0.0139% | fluorescence, % of fluorescein control ([6]; at 95.7 µM (top of the series)) -0.0045% | fluorescence, % of triamterene ([7]; at 95.7 µM (top of the series)) -0.12% | fluorescence, % of fluorescein ([8]; at 95.7 µM (top of the series)) -0.0112% | fluorescence, % of fluorescent control ([9]; at 95.7 µM (top of the series)) -0.213%

Cc1ccc([N+](=O)[O-])c([N+](=O)[O-])c1
inactive: Potency [2] | activity change, negative = cytotoxicity ([3]; at 83.3 µM (top of the series)) 14.4% | activity change, negative = cytotoxicity ([3]; at 95.3 µM (top of the series)) -29% | activity, negative = cytotoxicity ([4]; at 83.3 µM (top of the series)) -23% | activity, negative = cytotoxicity ([4]; at 95.3 µM (top of the series)) -6.06% | fluorescence, relative to Rose Bengal ([5]; at 91.3 µM (top of the series)) 0.177% | fluorescence, relative to Rose Bengal ([5]; at 95.7 µM (top of the series)) 0.0101% | fluorescence, % of fluorescein control ([6]; at 91.3 µM (top of the series)) 0.0147% | fluorescence, % of fluorescein control ([6]; at 95.7 µM (top of the series)) -0.0005% | fluorescence, % of triamterene ([7]; at 91.3 µM (top of the series)) -0.006% | fluorescence, % of triamterene ([7]; at 95.7 µM (top of the series)) -0.16% | fluorescence, % of fluorescein ([8]; at 91.3 µM (top of the series)) -0.008% | fluorescence, % of fluorescein ([8]; at 95.7 µM (top of the series)) 0.107% | fluorescence, % of fluorescent control ([9]; at 91.3 µM (top of the series)) 0.0322% | fluorescence, % of fluorescent control ([9]; at 95.7 µM (top of the series)) -0.145%

Source: PubChem BioAssay (Tox21)
